The values below come from patent publication US11090305B2, “Methods and compositions to reduce oxidative stress” (University of Massachusetts, priority 2009, dated 2021).

The test system of this assay is ApoE^−/−-derived HSCs. In words: HSC transplantation into lethally irradiated WT recipients. The format is in vivo, mouse. The settings on record: 12 weeks after transplant; ApoE^−/− donors pretreated 4 weeks. As for the experimental part:
HSC were purified from freshly harvested bone marrow mononuclear cells as c-Kit^+Sca-1^+CD90.1^lowLin^− by FACS sorting. Recipient mice were C57BL/6 (WT) on standard chow. Recipients underwent lethal irradiation (1100 Rads delivered in 2 doses 3 hr apart). Immediately after the 2nd irradiation, recipients were anesthetized (2% isoflurane) and 10^6 HSC/0.1 ml sterile PBS were transplanted via retro-orbital injection. Mice were followed for 12 weeks before study or administration of AOM.
It was next determined the oxidant status of HSCs transplanted into WT mice. To this end, lethally irradiated WT mice were transplanted with HSCs from WT or ApoE^−/− mice, or with HSCs harvested from ApoE^−/− mice pretreated with NAC for 4 weeks. […] FIGS. 53A-53E show HSCs harvested from WT recipient mice 12 weeks after transplantation with ApoE^−/−-derived HSCs retain evidence of oxidant stress. […] (B,C) The percentage of HSC and T-cell progenitor cells in total bone marrow cells were higher in the ApoE^−/−→WT transplant group than in the ApoE^−/−+NAC→WT or the WT→WT transplant groups. (D,E) The percentage of γδT cells and NKT cells in the thymus and peripheral blood were less in the ApoE^−/−→WT transplant group than in the ApoE^−/−+NAC→WT or the WT→WT transplant groups. […]

On to `CC(=O)N[C@@H](CS)C(=O)O` [NAC, N-acetylcysteine], for which the “percentage of HSC with DCF-DA staining >isotype in WT recipients” value is “higher in the ApoE^−/−≥WT transplant group than in the ApoE^−/−+NAC→WT or the WT→WT transplant groups”.
